The target in the experiment is Adenosine receptor A2a (Homo sapiens, UniProt P29274). As to the kind of experiment: Antagonist activity at human adenosine A2A receptor expressed in CHO-K1 cells preincubated for 15 mins before NECA addition measured after 5.5 to 6 hrs by beta-galactosidase reporter gene assay. Type of experiment: functional, cell-based. In general terms: In a reporter assay the amount or activity of a reporter protein is the signal.

Take `Nc1nc(-c2cccc(C(F)(F)F)c2)nc2sc(CN3CC=CC3)cc12`: the Ki (commonly a measure of affinity in units of concentration, obtained from inhibition or displacement) was 1070 nM.

These data come from ChEMBL document CHEMBL3217453, “Aminomethyl substituted thieno[2,3-d]pyrimidines as adenosine A2A receptor antagonists” (Medchemcomm, 2011).
